Data taken from patent US20050209441A1, “Process for promoting proper folding of human serum albumin using a human serum albumin ligand” (priority 2004, published 2005).

Sequences of proteins named here, by UniProt entry; tags and fusion partners are left off. Residues count along the entry.
UniProt P02768, 25-609: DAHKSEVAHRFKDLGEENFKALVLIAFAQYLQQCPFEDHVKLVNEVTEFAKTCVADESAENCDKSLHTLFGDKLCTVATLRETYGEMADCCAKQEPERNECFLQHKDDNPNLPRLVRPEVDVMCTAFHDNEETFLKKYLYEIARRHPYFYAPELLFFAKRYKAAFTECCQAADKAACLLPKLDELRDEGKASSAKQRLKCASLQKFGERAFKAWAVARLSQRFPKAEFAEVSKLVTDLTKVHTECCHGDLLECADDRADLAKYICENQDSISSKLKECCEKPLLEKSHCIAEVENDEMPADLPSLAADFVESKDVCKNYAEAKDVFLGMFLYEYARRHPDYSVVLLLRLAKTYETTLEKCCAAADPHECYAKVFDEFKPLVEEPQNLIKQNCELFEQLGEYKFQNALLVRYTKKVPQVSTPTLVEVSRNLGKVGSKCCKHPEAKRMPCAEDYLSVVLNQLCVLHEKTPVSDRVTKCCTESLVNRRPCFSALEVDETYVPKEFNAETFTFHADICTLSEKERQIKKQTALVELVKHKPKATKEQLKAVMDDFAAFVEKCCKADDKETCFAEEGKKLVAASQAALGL

Target: human serum albumin (HSA) (Homo sapiens, UniProt P02768)
Test: HSA refolding with ligand assistance (ED50 for refolding)

Optimal Concentration (refolding ligand): >1 M
Substance: 1-Propanol [1-Propanol (C3)]
